Results from paper PMC8400635, “A Bidirectional Permeability Assay for beyond Rule of 5 Compounds” (Pharmaceutics, 2021).

Columns and labels:
[1] = Aggregation by dynamic light scattering; format: physicochemical; details: transport buffer; 0.1, 1 and 10 µM; 25 °C
Procedure: All measurements were conducted at 25 °C with a detection angle of 173° and a measuring time of 120 s. Compound solutions were prepared in transport buffer (s. 2.3) at 0.1 µM, 1 µM, and 10 µM. For each sample, the measurement was recorded in triplicate. In DLS, the fluctuation of intensity in scattered light is correlated against short decay intervals (τ) and the intensity ACF (autocorrelation function) is obtained through the following mono-exponential equation:G(2) (τ) = B + Bf exp (−2Dmq^2 τ) (7)
• G(2)(τ): Measured amplitude autocorrelation function • B: So-called baseline • f: Instrument constant • Dm: Particle diffusion coefficient • q: Scattering vector given by (4πn/λ)sin(θ/2) • τ: Delay time
A correlogram is generated where g2(τ) is plotted against the decay time.

[2] = design: method as in PMID 25131706; details: cited from earlier work

Row | Substance | aggregation (DLS time correlation function) [1] | exposure in brain vs plasma ([2]; P-gp deficient mice) | brain levels ([2]; wildtype (WT) mice)
1 | Cyclosporin A | does not aggregate |  | 
2 | Emodepside | concentration-dependent aggregation | comparable exposure in brain and plasma | not detectable
